Tests used:
[1] = target: T1, endogenous kinases and other proteins enriched by Kinobeads from mixed cancer cell lysates (Homo sapiens, UniProt P16083); assay: Kinobeads pulldown, full dose-response (eight doses); type: binding; details: target NQO2;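 further: competition with Kinobeads ε after inhibitor preincubation in lysate (5 mg/ml protein) for 45 min at 4 °C, DMSO control, doses 0.3–1,000 nM, label-free LC–MS/MS quantification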
T1 construct: endogenous in cells
T1 sequence (P16083 1-231): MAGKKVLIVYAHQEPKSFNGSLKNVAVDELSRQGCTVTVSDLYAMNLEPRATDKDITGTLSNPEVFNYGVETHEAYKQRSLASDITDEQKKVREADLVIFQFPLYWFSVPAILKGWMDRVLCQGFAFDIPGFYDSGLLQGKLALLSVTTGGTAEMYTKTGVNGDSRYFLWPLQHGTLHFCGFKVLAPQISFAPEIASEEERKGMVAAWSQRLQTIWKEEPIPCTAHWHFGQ

Protein sequences, listed by entry. Tags and fused reporters are not part of them. Lines headed by an entry give the natural chain unless they say otherwise; changes in a name come on top.
UniProt P67870, whole entry: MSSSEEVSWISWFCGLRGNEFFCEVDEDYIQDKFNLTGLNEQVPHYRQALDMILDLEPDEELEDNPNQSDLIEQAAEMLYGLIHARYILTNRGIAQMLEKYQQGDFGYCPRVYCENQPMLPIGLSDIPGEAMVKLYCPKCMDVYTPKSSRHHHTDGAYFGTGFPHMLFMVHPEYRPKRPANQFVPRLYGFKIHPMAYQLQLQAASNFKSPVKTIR
UniProt P68400, whole entry: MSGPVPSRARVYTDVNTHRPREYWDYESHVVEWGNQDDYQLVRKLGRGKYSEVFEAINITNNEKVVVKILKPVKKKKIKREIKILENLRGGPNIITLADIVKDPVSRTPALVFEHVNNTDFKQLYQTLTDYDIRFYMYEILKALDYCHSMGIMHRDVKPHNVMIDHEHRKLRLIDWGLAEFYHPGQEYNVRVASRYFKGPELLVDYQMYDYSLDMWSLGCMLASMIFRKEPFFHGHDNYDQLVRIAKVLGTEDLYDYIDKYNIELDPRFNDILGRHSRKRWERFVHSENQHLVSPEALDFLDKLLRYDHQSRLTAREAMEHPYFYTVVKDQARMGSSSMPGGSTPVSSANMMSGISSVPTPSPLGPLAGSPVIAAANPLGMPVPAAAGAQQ
UniProt P19784, whole entry: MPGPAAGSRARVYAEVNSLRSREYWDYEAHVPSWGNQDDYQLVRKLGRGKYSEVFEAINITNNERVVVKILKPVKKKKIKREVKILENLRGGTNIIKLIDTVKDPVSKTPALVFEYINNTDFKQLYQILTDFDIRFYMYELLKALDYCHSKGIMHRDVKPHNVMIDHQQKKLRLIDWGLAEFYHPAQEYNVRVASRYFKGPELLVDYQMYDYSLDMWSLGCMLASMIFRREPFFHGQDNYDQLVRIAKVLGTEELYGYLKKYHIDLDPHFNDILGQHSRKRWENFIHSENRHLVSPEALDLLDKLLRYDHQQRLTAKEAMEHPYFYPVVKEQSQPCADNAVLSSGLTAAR
UniProt O75822, whole entry: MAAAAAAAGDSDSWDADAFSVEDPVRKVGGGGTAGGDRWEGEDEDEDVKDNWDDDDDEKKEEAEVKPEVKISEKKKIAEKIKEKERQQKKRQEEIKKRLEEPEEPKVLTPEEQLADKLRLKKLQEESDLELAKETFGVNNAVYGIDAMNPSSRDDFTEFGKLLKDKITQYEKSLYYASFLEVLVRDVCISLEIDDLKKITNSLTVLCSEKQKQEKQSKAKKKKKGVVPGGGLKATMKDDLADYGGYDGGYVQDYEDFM
UniProt P49841: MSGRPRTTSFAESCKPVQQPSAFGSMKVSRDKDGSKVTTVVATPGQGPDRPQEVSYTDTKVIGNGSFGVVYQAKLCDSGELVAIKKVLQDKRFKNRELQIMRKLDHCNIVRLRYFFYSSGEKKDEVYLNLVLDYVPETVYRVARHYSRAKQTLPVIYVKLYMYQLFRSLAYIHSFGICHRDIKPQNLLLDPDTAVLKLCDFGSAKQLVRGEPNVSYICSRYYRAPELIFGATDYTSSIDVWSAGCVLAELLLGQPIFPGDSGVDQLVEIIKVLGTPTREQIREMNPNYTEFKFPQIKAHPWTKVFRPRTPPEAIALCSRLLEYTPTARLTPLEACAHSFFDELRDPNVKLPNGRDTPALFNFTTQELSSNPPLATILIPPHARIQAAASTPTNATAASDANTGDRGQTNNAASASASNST
UniProt P49674: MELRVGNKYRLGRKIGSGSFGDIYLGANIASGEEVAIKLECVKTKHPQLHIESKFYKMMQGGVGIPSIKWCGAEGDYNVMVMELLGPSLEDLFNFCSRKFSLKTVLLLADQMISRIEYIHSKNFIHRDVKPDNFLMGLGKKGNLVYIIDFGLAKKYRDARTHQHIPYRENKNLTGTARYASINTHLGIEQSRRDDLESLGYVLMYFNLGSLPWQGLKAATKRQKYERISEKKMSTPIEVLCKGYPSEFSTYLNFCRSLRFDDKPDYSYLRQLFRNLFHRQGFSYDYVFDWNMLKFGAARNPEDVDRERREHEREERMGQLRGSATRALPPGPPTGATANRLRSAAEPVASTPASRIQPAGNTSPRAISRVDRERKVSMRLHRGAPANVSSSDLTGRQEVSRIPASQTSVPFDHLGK
UniProt P42684, whole entry: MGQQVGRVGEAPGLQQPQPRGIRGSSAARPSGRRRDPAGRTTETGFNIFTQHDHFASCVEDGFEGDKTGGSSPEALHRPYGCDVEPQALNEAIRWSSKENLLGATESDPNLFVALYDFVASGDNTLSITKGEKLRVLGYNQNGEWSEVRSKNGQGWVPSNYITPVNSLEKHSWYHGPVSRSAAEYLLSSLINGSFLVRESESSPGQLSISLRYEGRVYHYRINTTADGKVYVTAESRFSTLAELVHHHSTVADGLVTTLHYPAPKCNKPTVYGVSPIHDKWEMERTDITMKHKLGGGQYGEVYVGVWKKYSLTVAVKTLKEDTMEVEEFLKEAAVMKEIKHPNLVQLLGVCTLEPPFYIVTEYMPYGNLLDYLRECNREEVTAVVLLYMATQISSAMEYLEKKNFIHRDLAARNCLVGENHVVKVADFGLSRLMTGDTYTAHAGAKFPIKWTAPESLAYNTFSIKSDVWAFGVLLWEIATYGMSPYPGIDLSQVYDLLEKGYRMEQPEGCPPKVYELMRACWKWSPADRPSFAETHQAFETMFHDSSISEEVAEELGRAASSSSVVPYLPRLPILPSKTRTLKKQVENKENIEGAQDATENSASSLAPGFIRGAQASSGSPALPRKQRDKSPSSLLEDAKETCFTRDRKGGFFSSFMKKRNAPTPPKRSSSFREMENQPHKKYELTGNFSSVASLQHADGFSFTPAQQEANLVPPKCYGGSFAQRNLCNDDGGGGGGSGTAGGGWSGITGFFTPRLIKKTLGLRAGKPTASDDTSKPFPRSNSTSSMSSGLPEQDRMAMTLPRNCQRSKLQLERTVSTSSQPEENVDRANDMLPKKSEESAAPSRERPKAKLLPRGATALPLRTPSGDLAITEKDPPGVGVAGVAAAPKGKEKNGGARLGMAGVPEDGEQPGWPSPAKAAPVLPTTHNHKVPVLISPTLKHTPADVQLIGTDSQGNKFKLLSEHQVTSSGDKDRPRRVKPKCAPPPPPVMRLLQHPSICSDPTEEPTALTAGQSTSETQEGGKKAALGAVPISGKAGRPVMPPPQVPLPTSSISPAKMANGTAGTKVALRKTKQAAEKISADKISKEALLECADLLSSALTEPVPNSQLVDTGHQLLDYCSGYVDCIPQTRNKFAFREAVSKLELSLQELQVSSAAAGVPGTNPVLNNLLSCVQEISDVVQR

[2] = target: T2, endogenous kinases and other proteins enriched by Kinobeads from mixed cancer cell lysates (Homo sapiens, UniProt Q86TW2); assay: as above; type: binding; details: target ADCK1
T2 construct: endogenous in cells
T2 sequence (Q86TW2 1-530): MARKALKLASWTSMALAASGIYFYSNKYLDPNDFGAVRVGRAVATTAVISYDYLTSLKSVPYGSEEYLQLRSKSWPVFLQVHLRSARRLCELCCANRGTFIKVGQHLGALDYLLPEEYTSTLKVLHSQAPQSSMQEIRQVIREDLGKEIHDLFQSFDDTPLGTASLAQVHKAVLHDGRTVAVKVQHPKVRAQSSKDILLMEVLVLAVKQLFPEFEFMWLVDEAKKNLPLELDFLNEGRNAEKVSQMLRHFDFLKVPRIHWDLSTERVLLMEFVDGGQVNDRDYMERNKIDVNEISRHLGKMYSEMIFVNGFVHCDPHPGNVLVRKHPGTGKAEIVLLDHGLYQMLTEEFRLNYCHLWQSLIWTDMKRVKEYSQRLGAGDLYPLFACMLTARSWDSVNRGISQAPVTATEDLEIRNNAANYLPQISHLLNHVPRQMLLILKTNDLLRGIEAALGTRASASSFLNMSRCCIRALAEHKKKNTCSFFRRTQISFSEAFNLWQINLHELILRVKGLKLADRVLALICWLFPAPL

[3] = target: T3, endogenous kinases and other proteins enriched by Kinobeads from mixed cancer cell lysates (Homo sapiens, UniProt P67870); assay: as above; type: binding; details: target CSNK2B
T3 construct: endogenous in cells

[4] = target: T4, endogenous kinases and other proteins enriched by Kinobeads from mixed cancer cell lysates (Homo sapiens, UniProt P68400); assay: as above; type: binding; details: target CSNK2A1;CSNK2A3
T4 construct: endogenous in cells

[5] = target: T5, endogenous kinases and other proteins enriched by Kinobeads from mixed cancer cell lysates (Homo sapiens, UniProt P19784); assay: as above; type: binding; details: target CSNK2A2
T5 construct: endogenous in cells

[6] = target: T6, endogenous kinases and other proteins enriched by Kinobeads from mixed cancer cell lysates (Homo sapiens, UniProt Q9Y616); assay: as above; type: binding; details: target IRAK3
T6 construct: endogenous in cells
T6 sequence (Q9Y616 1-596): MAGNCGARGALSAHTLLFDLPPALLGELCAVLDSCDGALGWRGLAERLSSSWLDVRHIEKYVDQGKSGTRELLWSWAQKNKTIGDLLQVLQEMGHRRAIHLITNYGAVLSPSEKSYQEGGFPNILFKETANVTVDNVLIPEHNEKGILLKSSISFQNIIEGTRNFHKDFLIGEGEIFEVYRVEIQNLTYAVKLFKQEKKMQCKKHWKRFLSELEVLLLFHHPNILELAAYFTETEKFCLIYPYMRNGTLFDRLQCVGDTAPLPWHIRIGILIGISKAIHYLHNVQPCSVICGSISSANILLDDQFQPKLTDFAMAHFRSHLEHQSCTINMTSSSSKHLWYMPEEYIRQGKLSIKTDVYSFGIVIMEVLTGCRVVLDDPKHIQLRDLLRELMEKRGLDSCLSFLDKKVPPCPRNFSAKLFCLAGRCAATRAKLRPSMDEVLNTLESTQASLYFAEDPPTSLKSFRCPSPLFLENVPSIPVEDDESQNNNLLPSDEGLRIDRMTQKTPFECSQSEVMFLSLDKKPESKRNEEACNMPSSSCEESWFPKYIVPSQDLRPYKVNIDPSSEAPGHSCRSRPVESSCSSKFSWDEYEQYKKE

[7] = target: endogenous kinases and other proteins enriched by Kinobeads from mixed cancer cell lysates (Homo sapiens, UniProt O75822); assay: as above; type: binding; set-up: endogenous in cells; details: target EIF3J
GSK3B = target: T7, GSK3B (Homo sapiens, UniProt P49841); assay: Kinobeads two-dose competition binding: GSK3B; details: target GSK3B
T7 construct: endogenous in cells

CSNK1E = target: T8, CSNK1E (Homo sapiens, UniProt P49674); assay: Kinobeads competition binding: CSNK1E; details: target CSNK1E
T8 construct: endogenous in cells

ABL2 = target: T9, ABL2 (Homo sapiens, UniProt P42684); assay: Kinobeads two-dose competition binding: ABL2
T9 construct: endogenous in cells

## c1cn2cc(-c3ccc4cn[nH]c4c3)nc(Nc3ccc(N4CCOCC4)cc3)c2n1 [entospletinib]
[1]; 3nM
  Relative Intensity 3nM: 0.8638
[1]; 10nM
  Relative Intensity 10nM: 0.7653
[1]; 30nM
  Relative Intensity 30nM: 0.7014
[1]; 100nM
  Relative Intensity 100nM: 0.706
[1]; 300nM
  Relative Intensity 300nM: 0.5033
[1]; 1000nM
  Relative Intensity 1000nM: 0.1091
[1]; 3000nM
  Relative Intensity 3000nM: 0.05988
[1]; 30000nM
  Relative Intensity 30000nM: 0.107
[2]; 3nM
  Relative Intensity 3nM: 0.9978
[2]; 10nM
  Relative Intensity 10nM: 0.8486
[2]; 30nM
  Relative Intensity 30nM: 0.9503
[2]; 100nM
  Relative Intensity 100nM: 0.9468
[2]; 300nM
  Relative Intensity 300nM: 0.8835
[2]; 1000nM
  Relative Intensity 1000nM: 0.7386
[2]; 3000nM
  Relative Intensity 3000nM: 0.6987
[2]; 30000nM
  Relative Intensity 30000nM: 0.4073
[3]; 3nM
  Relative Intensity 3nM: 1.173
[3]; 10nM
  Relative Intensity 10nM: 1.116
[3]; 30nM
  Relative Intensity 30nM: 1.253
[3]; 100nM
  Relative Intensity 100nM: 0.9999
[3]; 300nM
  Relative Intensity 300nM: 1.216
[3]; 1000nM
  Relative Intensity 1000nM: 0.672
[3]; 3000nM
  Relative Intensity 3000nM: 0.4372
[3]; 30000nM
  Relative Intensity 30000nM: 0.231
[4]; 3nM
  Relative Intensity 3nM: 0.9165
[4]; 10nM
  Relative Intensity 10nM: 0.9459
[4]; 30nM
  Relative Intensity 30nM: 0.8853
[4]; 100nM
  Relative Intensity 100nM: 0.9826
[4]; 300nM
  Relative Intensity 300nM: 1.011
[4]; 1000nM
  Relative Intensity 1000nM: 0.6149
[4]; 3000nM
  Relative Intensity 3000nM: 0.4488
[4]; 30000nM
  Relative Intensity 30000nM: 0.1701
[5]; 3nM
  Relative Intensity 3nM: 0.9641
[5]; 10nM
  Relative Intensity 10nM: 0.9745
[5]; 30nM
  Relative Intensity 30nM: 0.9659
[5]; 100nM
  Relative Intensity 100nM: 0.937
[5]; 300nM
  Relative Intensity 300nM: 0.9329
[5]; 1000nM
  Relative Intensity 1000nM: 0.5868
[5]; 3000nM
  Relative Intensity 3000nM: 0.3908
[5]; 30000nM
  Relative Intensity 30000nM: 0.1465
[6]; 3nM
  Relative Intensity 3nM: 1.0086
[6]; 10nM
  Relative Intensity 10nM: 1.045
[6]; 30nM
  Relative Intensity 30nM: 1.07
[6]; 100nM
  Relative Intensity 100nM: 0.9847
[6]; 300nM
  Relative Intensity 300nM: 1.066
[6]; 1000nM
  Relative Intensity 1000nM: 0.8555
[6]; 3000nM
  Relative Intensity 3000nM: 0.8417
[6]; 30000nM
  Relative Intensity 30000nM: 0.5563
[7]; 3nM
  Relative Intensity 3nM: 0.8724
[7]; 10nM
  Relative Intensity 10nM: 0.9483
[7]; 30nM
  Relative Intensity 30nM: 1.14
[7]; 100nM
  Relative Intensity 100nM: 0.8522
[7]; 300nM
  Relative Intensity 300nM: 1.105
[7]; 1000nM
  Relative Intensity 1000nM: 0.6452
[7]; 3000nM
  Relative Intensity 3000nM: 0.4407
[7]; 30000nM
  Relative Intensity 30000nM: 0.1633

## CCN1CCN(Cc2ccc(Nc3ncc(F)c(-c4cc(F)c5nc(C)n(C(C)C)c5c4)n3)nc2)CC1 [Abemaciclib]
GSK3B
  CATDS: 0.06142
CSNK1E
  CATDS: 0

## COc1cc(Nc2c(C#N)cnc3cc(OCCCN4CCN(C)CC4)c(OC)cc23)c(Cl)cc1Cl [Bosutinib]
ABL2
  CATDS: 0.09747

— publication PMC11062922 (Nature Chemical Biology, 2023)
